Assay results: paper PMC12670160, “A drug-repurposing screen of FDA- and EMA-approved drugs identifies two NF-κB inhibitors active against eumycetoma” (Journal of Antimicrobial Chemotherapy, 2025)
Most of the strong results are listed elsewhere, so they are rarer here than in the full data.

These compounds were tested on M. mycetomatis strain mm55. Conditions: m. mycetomatis hyphae, 96 h, 2 µM.
In the case of `OC[C@H]1OC(O)[C@H](F)[C@@H](O)[C@H]1O` (stereo partly shown) [ONC0004665, 2deoxy2fluorodgalactose], the “% viability” value is reported as 106.8%.
